Only some compounds are listed: those with a hit (about 2.1% of all), similar ones and a draw of the others.
SMARCA2 act: increases SMARCA2 function in MMTV reporter cells; AID 652017; activation, % at 9.1 µM; MG213 cells, MMTV-luciferase reporter, dexamethasone, overnight; 370,000 tested, 1% active; in the data active = activation above about 7.8%;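 note: 0% = vehicle wells and 100% = reference activator wells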
ERp5 block: inhibitors of human ERp5 | ERp5 insulin aggregation, absorbance 650 nm, 90 min | inhibition, % at 9.99 µM | 350,000 tested, 0.05% active | Q15084 | AID 651711;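 active = mean replicate inhibition above about 25%, with every replicate also reaching it, limit read from the data, passing the limit was not always enough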
NR1D1 modulator: Rev-erb alpha (human) modulation | P20393 | Rev-erbα–FITC-DNA binding, fluorescence polarization, 90 min | 370,000 tested, 0.79% active | activity, % at 10 µM | AID 1259318;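 active = activity above about 14%, limit read from the data; passing the limit was not always enough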;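 note: 0% = DMSO wells with 35 nM protein and 100% = DMSO wells with 750 nM protein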
GSIS activator: GLuc luminescence reporter in INS-1E cells, primary screen for activators of glucose-dependent secretion of insulin; INS-1E GLuc reporter insulin secretion, 2-3 h; AID 743287; activation, % at 16.6 µM; 370,000 tested, 0.61% active;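 active = lowest replicate activation of at least 40%, so every replicate reaches that level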;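 note: 0% = median of neutral control wells and 100% = median of IBMX positive control wells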
Yeast UUG start: modulators of yeast start codon fidelity, primary screen, whole organism, S. cerevisiae, single point, plate reader; S. cerevisiae UUG-firefly luciferase reporter, luminescence/redox ratio; activity score, % at 18.7 µM; actives 0.13% (n = 350,000); AID 602363, 2012;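 active = replicate mean at a twofold rise or more, about +100% in these data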;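 also: firefly luciferase made from a UUG start codon reports start codon fidelity; reporter light over untreated wells divided by growth signal over untreated wells; some hits fall short of that in this replicate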
PDI inh: inhibitors of human protein disulfide isomerase | P07237 | PDI insulin aggregation turbidity, A650, 90 min | inhibition, % at 10 µM | 350,000 tested, 0.052% active | AID 588391;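 active = mean inhibition across replicates of 30% or more, whatever share of single replicates reach that level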
* hit, by the source's call; . = not tested or not shown.

SMILES | SMARCA2 act | ERp5 block | NR1D1 modulator | GSIS activator | Yeast UUG start | PDI inh
COCC(=O)Nc1ccc2c(c1)C(=O)N(C)C[C@H](OC)[C@@H](C)CN(C)[C@@H](C)CO2 | . | 1.3 | . | 3.9 | 5.4 | .
COc1ccccc1-c1ccc([C@H]2[C@@H](CO)N(C(=O)NC3CCCC3)[C@H]2C#N)cc1 | . | 0.7 | . | -18.0 | . | .
COc1cc(/C=C/C=C2/CC/C(=C/C=C/c3ccc(O)c(OC)c3)C2=O)ccc1O | -4.0 | 0.5 | -24.0 | -8.2 | . | 38.9*
COc1ccccc1Cn1c(=O)oc2ccccc21 | -4.1 | 1.0 | -2.9 | 43.1* | -15.5 | -7.1
COc1ccc(CCN(C)C(=O)CSc2ncnc3sccc23)cc1OC | -0.7 | 2.1 | -3.8 | 77.9* | . | 0.1
COc1ccc(CCN(C)C(=O)Cn2c(=O)oc3ccccc32)cc1OC | -2.0 | -6.2 | 2.6 | 69.8* | -3.5 | 5.8
COc1ccc(CCN(C)c2ncnc3sccc23)cc1OC | -0.6 | 2.7 | -5.5 | 20.4 | . | -2.3
C[C@H](CO)N1C[C@H](C)[C@H](CN(C)C(=O)C2CC2)Oc2cc(-c3cccc(C#N)c3)ccc2S1(=O)=O | . | -0.9 | . | 7.7 | -2.9 | .
Cc1ccc(C(=O)c2sc(Nc3ccccc3)c(C#N)c2N)cc1 | -3.2 | . | 8.3 | 42.7* | . | 10.0
N#Cc1c(Nc2ccccc2)sc(C(=O)c2ccc(F)cc2)c1N | 0.2 | . | 1.5 | -11.4 | . | -3.8
COCC#Cc1cnc2c(c1)C(=O)N([C@@H](C)CO)C[C@@H](C)[C@@H](CN(C)C(=O)C1CCCCC1)O2 | . | -3.0 | . | 8.4 | 14.8 | .
CCOC(=O)c1ccc(NC(=O)c2nc[nH]c2C(=O)N[C@H](C)CO)cc1 | 2.4 | -3.3 | -6.8 | 55.8* | -19.7 | 6.5
O=C(C[C@H]1C=C[C@H](NC(=O)C2CCOCC2)[C@@H](CO)O1)NCc1ccccc1Cl | . | -0.6 | . | 9.0 | . | .
C[C@H](CO)N1C[C@H](C)[C@H](CN(C)S(=O)(=O)c2ccc(Cl)cc2)Oc2ccc(NS(C)(=O)=O)cc2C1=O | . | . | . | 31.7 | -3.5 | .
OCCOCCNc1ncnc2c1cnn2-c1ccccc1 | 7.8* | . | -4.7 | . | -9.9 | -3.5
O=C(NCc1ccncc1)c1ccc2nc([C@@H]3O[C@H](CO)[C@H](O)[C@H](O)[C@H]3O)[nH]c2c1 | -3.7 | -0.3 | -2.0 | . | -29.0 | -0.4
O=C(NCc1cc(Cl)cc(Cl)c1)c1ccc2nc([C@@H]3O[C@H](CO)[C@@H](O)[C@H]3O)[nH]c2c1 | -1.9 | 1.6 | 5.9 | 55.8* | -12.7 | 2.0
C=CCn1c(SC2CCOC2=O)nc2sc(CC)cc2c1=O (stereo not drawn) | -0.3 | . | -1.2 | 58.6* | 1.3 | -3.0
C[C@H]1CN([C@@H](C)CO)S(=O)(=O)c2ccc(C#CCN(C)C)cc2O[C@@H]1CN(C)Cc1ccccc1 | . | 5.1 | . | -5.8 | 3.3 | .
CC(=O)N=c1c(C#N)cc2c(=O)n3ccccc3nc2n1Cc1ccccc1 | 8.3* | . | -30.0 | 15.2 | -15.1 | -0.4
OC(c1ccccc1)(c1ccccc1)C1CCN(CCCOc2ccc(C(F)(F)F)cc2)CC1 | -8.2 | 4.4 | 1.8 | 654.3* | . | .
OC(c1ccccc1)(c1ccccc1)C1CCN(CCCOc2ccc(OC(F)(F)F)cc2)CC1 | -3.0 | . | 2.2 | . | . | .
COc1ccc(Cl)cc1NC(=O)CN(C)C(=O)Cn1[nH]c(=O)c2ccccc2c1=O | -2.3 | -5.5 | -3.6 | 56.9 | -4.5 | -0.9
COc1cccc(NC(=O)CN(C)C(=O)Cn2[nH]c(=O)c3ccccc3c2=O)c1 | -0.2 | -3.4 | -3.1 | 41.5* | 24.8 | -1.0
COCC(=O)N1CC2(CCN(C(=O)CN3CCOCC3)CC2)c2c([nH]c3cc(OC)ccc23)[C@@H]1CO | . | . | . | 5.9 | . | .
CCCC(=O)N1CC2(C1)CN(C(=O)Nc1ccc(F)cc1)[C@@H](CO)c1c2c2ccc(OC)cc2n1C | . | 2.7 | . | 0.0 | . | .
CCn1cc(C(=O)NC(=S)Nc2sc3c(c2C(=O)OC)CCCCCC3)cn1 | -0.6 | . | 15.3 | 74.0* | 13.0 | 6.1
O=C(/C=C/c1ccccc1)CCN1CCOCC1 | 0.7 | 2.8 | -3.1 | 52.4* | . | 4.9
CC1=CSC2=NC(=O)/C(=C\c3cccn3-c3ccc([N+](=O)[O-])cc3)C(=N)N12 | -2.0 | . | -9.0 | 236.6* | -8.2 | 6.4
COc1cccc(CNC(=O)C[C@H]2CC[C@@H](NC(=O)C3CC3)[C@H](CO)O2)c1 | . | 2.2 | . | -0.4 | -9.7 | .
CCN1CCN(CCNC(=O)c2ccc3c(c2)N(Cc2ccc(F)cc2)C(=O)/C(=C/c2ccccc2)S3)CC1 | 0.5 | 0.9 | 1.3 | 102.3* | -14.0 | 15.6
CN1CCN(CCCNC(=O)c2ccc(/C=C3\Sc4ccccc4N(Cc4ccccc4F)C3=O)cc2)CC1 | 0.2 | 5.4 | 3.8 | 120.1* | . | -4.5
O=C(NCCN1CCOCC1)c1ccc(/C=C2\Sc3ccccc3N(Cc3ccccc3F)C2=O)cc1 | -2.0 | 3.5 | 4.7 | 14.3 | 5.6 | -6.3
CCN1CCN(CCNC(=O)c2ccc(/C=C3/Sc4ccccc4N(Cc4cccc(Cl)c4)C3=O)cc2)CC1 | 7.7 | 1.1 | -1.3 | 37.4 | . | 8.6
CC1CCN(C(=O)CSc2nnc(-c3ccccc3F)o2)CC1 | -1.2 | -0.6 | 1.0 | 63.1* | -11.6 | -7.5
COc1ccc(S(=O)(=O)N2CC(C(=O)O)Oc3ccc(Cl)cc32)cc1 (stereo not drawn) | -2.1 | 0.9 | -1.5 | -5.6 | 1.0 | 1.6
CC(C)(C)c1ccc(S(=O)(=O)N2CC(C(=O)O)Oc3ccc(Cl)cc32)cc1 (stereo not drawn) | -1.0 | 4.5 | -4.7 | 141.6* | -13.0 | -0.7
COc1ccc2c3c(n(C)c2c1)[C@@H](CO)N(C(=O)CC1CC1)CC31CN(C(=O)C2CC2)C1 | . | . | . | -4.3 | . | .
COC(=O)C(CC#Cc1ccc2c(c1)[C@]1(C(=O)N2)[C@H](c2ccc(OCCO)cc2)N2[C@H](c3ccccc3)[C@H](c3ccccc3)OC(=O)[C@H]2[C@@H]1C(=O)N1CCCCCCC1)C(=O)OC | . | -0.8 | . | . | -7.1 | .
COc1cc2[nH]c3c(Cl)ncnc3c2cc1OC | -1.5 | . | -1.9 | 53.6* | -7.5 | 6.3

Given with values ahead of the structure: five of the compounds above.
SMARCA2 act | ERp5 block | NR1D1 modulator | GSIS activator | Yeast UUG start | PDI inh | Molecule
-2.1 | 0.9 | -1.5 | -5.6 | 1.0 | 1.6 | COc1ccc(S(=O)(=O)N2CC(C(=O)O)Oc3ccc(Cl)cc32)cc1 (stereo not drawn)
-1.0 | 4.5 | -4.7 | 141.6* | -13.0 | -0.7 | CC(C)(C)c1ccc(S(=O)(=O)N2CC(C(=O)O)Oc3ccc(Cl)cc32)cc1 (stereo not drawn)
. | . | . | -4.3 | . | . | COc1ccc2c3c(n(C)c2c1)[C@@H](CO)N(C(=O)CC1CC1)CC31CN(C(=O)C2CC2)C1
. | -0.8 | . | . | -7.1 | . | COC(=O)C(CC#Cc1ccc2c(c1)[C@]1(C(=O)N2)[C@H](c2ccc(OCCO)cc2)N2[C@H](c3ccccc3)[C@H](c3ccccc3)OC(=O)[C@H]2[C@@H]1C(=O)N1CCCCCCC1)C(=O)OC
-1.5 | . | -1.9 | 53.6* | -7.5 | 6.3 | COc1cc2[nH]c3c(Cl)ncnc3c2cc1OC

Remaining list, next part
SMILES | SMARCA2 act | ERp5 block | NR1D1 modulator | GSIS activator | Yeast UUG start | PDI inh
C[C@@H]1CN([C@@H](C)CO)C(=O)c2cccc(NC(=O)c3ccc(-c4nccs4)cc3)c2O[C@H]1CN(C)Cc1ccc(C(F)(F)F)cc1 | . | . | . | 19.3 | . | .
Cc1cccc(CN2C(=O)CSc3ccc(C(=O)NC4CC4)cc32)c1 | -4.2 | -2.4 | 3.8 | 190.5* | -3.8 | -0.1
Cc1noc(C)c1NC(=O)N[C@H]1CC[C@@H](CC(=O)Nc2ccccc2)O[C@H]1CO | . | 4.8 | . | 14.0 | -9.5 | .
CCOC(=O)C1(Cc2ccccc2)NC(c2ccccc2F)C2C(=O)N(CC)C(=O)C21 (stereo not drawn) | -1.1 | . | 4.1 | . | -5.2 | -0.9
CCN1C(=O)C2C(c3ccccc3F)NC(Cc3ccc(O)cc3)(C(=O)OC)C2C1=O (stereo not drawn) | -1.3 | . | 3.4 | . | 13.8 | 52.7*
COc1cccc(-c2cn(CC[C@H]3CC[C@H](NS(=O)(=O)Cc4ccccc4)[C@@H](CO)O3)nn2)c1 | . | -5.3 | . | 7.8 | . | .
